Target: Keap1 (6xHis/GST) (Homo sapiens, UniProt Q14145)
Test: Keap1 tracer saturation binding with epitope-tagged Keap1 and Tb-Anti-6xHis
Conditions: read-out: Kd,app; 1 nM Keap1 (6xHis/GST), 0.5 nM Tb-Anti-6xHis

By UniProt entry, the sequences of proteins in these tests, tags left out.
UniProt Q14145, whole entry: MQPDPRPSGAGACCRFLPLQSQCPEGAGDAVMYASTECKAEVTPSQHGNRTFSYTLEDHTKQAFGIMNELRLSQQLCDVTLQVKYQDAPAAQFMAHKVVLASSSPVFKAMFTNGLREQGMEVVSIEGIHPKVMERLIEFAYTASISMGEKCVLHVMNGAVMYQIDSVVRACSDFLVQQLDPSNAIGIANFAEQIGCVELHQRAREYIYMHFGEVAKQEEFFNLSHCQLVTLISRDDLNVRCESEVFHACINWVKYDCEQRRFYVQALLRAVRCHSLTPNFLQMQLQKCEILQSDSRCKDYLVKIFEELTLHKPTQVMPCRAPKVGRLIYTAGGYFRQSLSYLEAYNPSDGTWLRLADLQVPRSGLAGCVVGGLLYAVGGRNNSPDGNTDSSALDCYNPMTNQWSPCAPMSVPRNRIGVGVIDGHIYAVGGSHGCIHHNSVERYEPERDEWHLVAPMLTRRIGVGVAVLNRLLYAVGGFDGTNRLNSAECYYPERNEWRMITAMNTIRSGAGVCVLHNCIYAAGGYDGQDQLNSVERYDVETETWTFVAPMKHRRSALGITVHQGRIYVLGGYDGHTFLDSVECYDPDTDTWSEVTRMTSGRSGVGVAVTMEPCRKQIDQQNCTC

CC1(C)CC[C@]2(C(=O)NCCCOCCOCCOCCCNC(=S)Nc3ccc(-c4c5ccc(=O)cc-5oc5cc(O)ccc45)c(C(=O)O)c3)CC[C@]3(C)[C@H](C(=O)C=C4[C@@]5(C)C=C(C#N)C(=O)C(C)(C)[C@@H]5CC[C@]43C)[C@@H]2C1 [CDDO-FITC]
Kd: 6.8 ± 1.1 nM

— PMC8555866 (Nature chemical biology, 2021)
